CASP6 VEID inh = inhibitors of human caspase-6; inhibition, % at 12.5 µM; purified caspase-6, Z-VEID-R110 cleavage fluorescence; P55212; 0.53% of 350,000 active;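 active = mean inhibition across replicates at least about 35%, with every replicate also reaching that limit, limit read from the data; inconclusive = only one of the two criteria met; inactive = neither criterion met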
RAD52 inh = inhibitors of human RAD52 DNA annealing; inhibition, % at 18.7 µM; P43351; AID 651710; recombinant RAD52 DNA annealing, FRET fluorescence; 0.46% of 360,000 active;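 active = every replicate showing at least 50% inhibition; inconclusive = mean inhibition at least 50% but not in every replicate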
Yeast UUG start = alters start codon recognition fidelity in yeast; S. cerevisiae UUG-firefly luciferase reporter, luminescence/redox ratio; activity score, % at 18.7 µM; actives 0.13% (n = 350,000); AID 602363;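 active = replicate mean at a twofold rise or more, about +100% in these data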;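 also: firefly luciferase made from a UUG start codon reports start codon fidelity; reporter light over untreated wells divided by growth signal over untreated wells; some hits fall short of that in this replicate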
PglD DTNB = inhibitors of Campylobacter jejuni PglD acetyltransferase | purified PglD enzyme, DTNB colorimetric CoA detection | inhibition, % at 12.5 µM | 0.098% of 360,000 active; in the data active = inhibition above about 16%, passing the limit was not always enough; inconclusive = no clear call, values can overlap the other calls
RAD54 branch = RAD54 (human) branch migration inhibition; Q92698; RAD54 Holliday junction branch migration, FAM/BHQ fluorescence; inhibition, % at 10.4 µM; 0.14% of 360,000 active; AID 602329;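 active = mean normalized replicate activity at least 40 and at least half of replicates scoring 40 or more; inconclusive = only one of the two criteria met; inactive = mean below 40 and under half of replicates reaching 40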;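 note: inhibitors cause a drop in the FAM fluorescence signal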
GSIS activator = primary screen for activators of insulin secretion dependent on glucose, INS-1E cells, GLuc reporter luminescence; AID 743287; activation, % at 16.6 µM; 0.61% of 370,000 active; INS-1E GLuc reporter insulin secretion, 2-3 h;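 active = lowest replicate activation of at least 40%, so every replicate reaches that level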
RAD52 DNA ctr = DNA binding artifact in RAD52 counter-screen | shares compounds with RAD52 inh | Salmon sperm DNA/acridine orange FP displacement | AC50, µM | 8% of 1,000 active | AID 652128;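 active = fitted half-maximal concentration for signal loss at or below twice the highest dose tested, in every separate run, actives reach about 64 µM in these data; inconclusive = runs disagree, or flat partial signal loss, or poor fit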
CASP1 counter = blocks human caspase-1 in a selectivity counter-screen | shares compounds with CASP6 VEID inh | purified caspase-1, Z-YVAD-R110 cleavage fluorescence | activity change, negative = inhibition, % at 35 µM | 100 tested, under 10 active | AID 743289;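 active = compounds lowering fluorescence whose fitted half-maximal concentration is no more than twice their top tested dose; inconclusive = flat fit with 30 to 70% inhibition, or poor fit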
Of the large screens only hits and unclear results are named; the others gave an inactive call (follow-up assays come after a bar, where they were run); ! = not confirmed by another sample. In the library only some 1.5% were active in any assay of this set; here they are far more common.

CCN(CCCl)c1cc(CN(C)C)cc(NC(=O)c2ccc(C(=O)Nc3cc(CN(C)C)cc(N(CC)CCCl)c3)cc2)c1	RAD52 inh 105 (no result: Yeast UUG start, PglD DTNB, RAD54 branch) | RAD52 DNA ctr inconclusive
Cc1c(P(=S)(c2ccccc2)c2ccccc2)[n+]2ccccc2n1C	RAD52 inh 97! | RAD52 DNA ctr inactive
COC(=O)C1=C(c2cccc(OCc3ccccc3)c2)C[C@@H]2CC[C@H]1N2C	none
COc1cc2c(cc1OC)-c1c(OC)c(OC)cc3c1[C@H](C2)N(C)CC3	CASP6 VEID inh 58, RAD52 inh 76, RAD54 branch 91 | RAD52 DNA ctr inactive | CASP1 counter inactive
COc1ccc(C(c2nnnn2-c2ccc(OC)cc2)N2CCC(n3c(=O)[nH]c4ccccc43)CC2)cc1 (centres undefined)	none

Bioassay records: PubChem, Broad Institute
